Measurements published in patent publication US9956204B2, “Composition for exterminating scuticociliates in fish including mebendazole” (NATIONAL INSTITUTE OF FISHERIES SCIENCE, priority 2016, dated 2018).

Columns and labels:
[1] = tested on: scuticociliates; assay: Scuticociliates extermination effect of candidate substances in MEM medium; format: cell-based
Description: CHSE-214 cell line into which scuticociliates were inoculated was cultured in advance. The CHSE-214 cell line was cultured in an incubator using an MEM medium at 22° C. Scuticociliates inoculated into the cell line proliferated for 3 days by which the number reaches to be capable of analyzing in vitro anti-scuticociliates effect. Scuticociliates that feed on the cell line and sufficiently grow were mixed with the candidate substance and the activity of scuticociliates was measured.
In order to analyze the antiparasitic activity of the above 19 types of candidate substances of scuticociliates extermination drugs, scuticociliates were cultured for 3 days, and 100 μl (1×10^5) was dispensed into each well of 96 wells. The candidate substances were diluted by each concentration and the final volume was dispensed into 100 μl. Thereafter, the two were mixed and finally made into 200 μl.

[2] = tested on: scuticociliates; assay: Scuticociliates extermination effect of candidate substances in seawater medium; format: cell-based
Description: For this, scuticociliates were cultured in CHSE-214 cell line (using MEM medium), and then scuticociliates were collected and centrifuged with sterilized seawater or artificial seawater (20‰) to replace them with a seawater medium. Each of 100 μl (1×10^5) was dispensed into each well of 96 wells, followed by further culture for 30 minutes. The candidate substances diluted in seawater to have a volume of 100 μl per each concentration were mixed with scuticociliates to have the final volume of 200 μl and cultured for 4 hour.

Structure (SMILES): COCC(=O)Nc1cc(Sc2ccccc2)ccc1N/C(=N\C(=O)OC)NC(=O)OC [Febantel]
- Survival or Death of scuticociliates (activity and shape, microscope) [1]: Survival
- Survival or Death of scuticociliates (activity and shape, microscope) [2]: Survival
